The results in this text go back to patent publication US9987276B2.

Sequences of proteins named here, by UniProt entry; tags and fusion partners are left off. A change or cut given only in a name is not applied to a line headed by its entry.
UniProt Q06187: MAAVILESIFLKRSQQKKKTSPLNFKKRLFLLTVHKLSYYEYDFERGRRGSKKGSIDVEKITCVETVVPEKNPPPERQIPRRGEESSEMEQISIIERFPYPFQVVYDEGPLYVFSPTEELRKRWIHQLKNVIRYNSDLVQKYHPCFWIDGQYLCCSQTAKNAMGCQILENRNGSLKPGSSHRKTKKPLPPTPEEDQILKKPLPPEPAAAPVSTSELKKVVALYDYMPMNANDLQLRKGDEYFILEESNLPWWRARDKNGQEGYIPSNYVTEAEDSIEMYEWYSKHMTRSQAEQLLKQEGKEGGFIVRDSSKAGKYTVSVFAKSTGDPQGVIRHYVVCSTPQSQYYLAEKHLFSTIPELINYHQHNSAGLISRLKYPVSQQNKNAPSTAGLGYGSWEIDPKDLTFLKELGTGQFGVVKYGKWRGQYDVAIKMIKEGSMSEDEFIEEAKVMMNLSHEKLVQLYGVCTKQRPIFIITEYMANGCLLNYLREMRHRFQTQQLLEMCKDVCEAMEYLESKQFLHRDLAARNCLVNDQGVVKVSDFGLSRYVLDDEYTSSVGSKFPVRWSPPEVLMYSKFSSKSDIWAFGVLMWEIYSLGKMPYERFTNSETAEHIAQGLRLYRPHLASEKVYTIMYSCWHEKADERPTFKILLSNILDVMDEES

SMILES strings stand for the structures. Where only a bound is given, the exact number is not on record here.

This assay addresses BTK (Homo sapiens (Human), UniProt Q06187). Kind of assay: Omnia assay for potency assessment against BTK. It counts as biochemical. The conditions noted are these: read-out: BTK Inhibition (IC50).

As to `C=CC(=O)Nc1cccc(Nc2nc(Nc3ccc(Oc4ccnc(C(=O)NC)c4)cc3)ncc2F)c1` [Compound I-342, 4-(4-(4-(3-acrylamidophenylamino)-5-fluoropyrimidin-2-ylamino)phenoxy)-N-methylpicolinamide], the IC50 is below 10 nM.
